Values of other authors as cited in publication PMC4160250.

Sequences of proteins named here, by UniProt entry; tags and fusion partners are left off. Residues count along the entry.
UniProt P45974, 654-762: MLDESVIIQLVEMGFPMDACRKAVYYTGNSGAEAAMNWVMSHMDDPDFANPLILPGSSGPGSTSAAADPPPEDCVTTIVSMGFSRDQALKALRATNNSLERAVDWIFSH

Molecular target: USP5 UBA12 (Homo sapiens) (UniProt P45974)
Settings: cited from earlier work

Ubiquitin (from UniProt P0CG48)
Kd: 50 µM
